Compound activity from PubChem BioAssay.
Sfp inh: qHTS Assay for Inhibitors of Bacillus subtilis Sfp phosphopantetheinyl transferase (PPTase) | 4'-phosphopantetheinyl transferase ffp (Bacillus subtilis), Q9F4F7 | AID 1490, 2009 | actives 3.5% (n = 310,000) | Biochemical Sfp PPTase activity, qHTS | Potency, µM, for inactives: max response, negative = inhibition, most hits filed as inhibitors; active = well fitted inhibition curve with a large enough effect; inconclusive = small, poorly fitted or top-dose-only effect, or another doubt; inactive = no such curve, though single readings can be large or run the other way;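 also: the enzyme is Sfp with the accession as filed and its product quenches rhodamine fluorescence; potency is read from the fitted curve at half-maximal effect; 0% = enzyme reaction without inhibitor and -100% = no enzyme wells; top concentration of the series not given in the record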
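Compounds were incubated with enzyme (final 15 nM) for 15 min at room temperature before substrate addition started the reaction. Fluorescence at 525 nm excitation, 598 nm emission was recorded immediately and after 30 minutes.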
JMJD2E inh: JMJD2E (human) inhibition. hit rate 1.6% among 230,000. AID 2147. JMJD2E catalytic domain, FDH-coupled NADH fluorescence (FDH is formaldehyde dehydrogenase). Potency, µM (top dose mostly 57.1 µM), without a hit: at the top dose activity change, negative = inhibition, usual class: inhibitors; active means well fitted inhibition curve with a large enough effect, not every such curve was filed as active; inconclusive means small, poorly fitted or top-dose-only effect, or another doubt; inactive means no such curve, though single readings can be large or run the other way;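 further: potency means the concentration at half of the fitted maximal effect; 0% = wells with enzyme and -100% = buffer wells without enzyme; nearly all actives have a fitted effect of over 50% in size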
G9a block: G9a (human) methyltransferase inhibition | AID 504332 | Q96KQ7 | G9a H3K9 monomethylation, AlphaScreen, 2 h | Potency, µM (series often up to 102 µM), inactives show at the highest dose activity, negative = inhibition, most hits filed as inhibitors | hit rate 8.8% among 350,000; further: potency means the concentration at half of the fitted maximal effect; on the % scale 0 is the no-effect control and ±100 the full control effect; nearly all actives have a fitted effect of over 75% in size
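Readings reflect AlphaScreen signal from monomethyl-H3K9 antibody detection. HMT at 20 nM; substrate b-H3K9 500 nM; cofactor SAM 20 uM; 2 h RT reaction; compounds tested as titrations in qHTS with 15 min preincubation.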
Lamin A splicing: LMNA splicing modulation. Potency, µM (highest dose often 46.1 µM), without a hit: at the highest dose ratio change, negative = inhibition, most hits filed as inhibitors. hit rate 0.01% among 200,000. HeLa LMNA splicing GFP/RFP minigene ratio, 48 h; active means well fitted inhibition curve with a large enough effect in the signal ratio, with a control signal flat, not every such curve was filed as active; inconclusive means small, poorly fitted or top-dose-only effect, or effect the other way, or a change in a side signal; the % refers to the signal ratio; further: potency means the concentration at half of the fitted maximal effect; on the % scale 0 is the no-effect control and ±100 the full control effect
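S3 HeLa cells stably expressing lamin A-EGFP splicing minigene plus DsRed2, 600 cells/well, 48 h compound exposure at 37C. Laser-scanning cytometry; analysed as GFP (500-530 nm)/RFP (575-640 nm) total intensity ratio; 0.5% DMSO vehicle.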
miR-21 reporter: miR-21 reporter, rising signal | AID 2288 | HeLa miR-21 FLuc reporter, luciferase, 48 h | 340,000 tested, under 10 active | Potency, µM (doses to about 38.3 µM), for inactives: at the top dose reporter change, positive = more light; active = well fitted rising curve with a large enough effect; inconclusive = small, poorly fitted or top-dose-only effect; inactive = no such curve, though single readings can be large or run the other way;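 note: % of control where 0% means no effect; miR-21 action dims this reporter so a rising signal means less miR-21 action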
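Using DMEM plus 10% FBS, HeLa miR-21-FLuc cells are incubated with test compounds (final up to about 40uM) for 48 hours; firefly luciferase signal is then imaged following reagent-mediated lysis.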
ALDH1A1 inh: ALDH1A1 (human) enzyme inhibition. Potency, µM (top dose mostly 75.3 µM), inactives show top-dose activity, negative = inhibition, usual class: inhibitors. Purified ALDH1A1, NADH fluorescence, propionaldehyde substrate. P00352. hit rate 7.3% among 220,000; active means well fitted inhibition curve with a large enough effect, not every such curve was filed as active; inconclusive means small, poorly fitted or top-dose-only effect, or another doubt; inactive means no such curve, though single readings can be large or run the other way;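 further: potency means the concentration at half of the fitted maximal effect; plate controls were no enzyme wells and a reference inhibitor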
* hit, by the source's call; ? = inconclusive; · = no result given; [ ] = remark or other dose. The list is not random: actives were taken first. Their share in the collection is about 13%. Unless noted, the call rests on the fitted dose curve; in most records, active means well fitted curve in the direction sought with a large enough effect; inconclusive means small, poorly fitted or top-dose-only effect, or another doubt; inactive means no such curve, though single readings can be large; an effect the other way counts as inactive or inconclusive.

| No. | SMILES | Sfp inh | JMJD2E inh | G9a block | Lamin A splicing | miR-21 reporter | ALDH1A1 inh |
| --- | --- | --- | --- | --- | --- | --- | --- |
| 1 | CCOc1ccc(NC(=O)c2oc3ccccc3c2NC(=O)COc2cccc(OC)c2)cc1 | · | · | 6.6%[59 µM] | · | -1.9% | · |
| 2 | COc1ccc(N2CCN(C(=O)c3oc4ccccc4c3C)CC2)cc1 | -6.0% | 1.7% | 35.5µM* | ? | -6.2% | -17.0% |
| 3 | O=C(c1oc2ccccc2c1CSCc1ccccc1)N1CCN(c2ncccn2)CC1 | -3.6% | -12.0% | -10.4%[2.33 µM] | ? | 17.8% | 12.6µM* |
| 4 | CN1CCN(CC(=O)Nc2c(C#N)cnn2-c2ccccc2)CC1 | -4.5% | -4.7% | 5.2% | · | -4.2% | · |
| 5 | Cc1cc(C)cc(C(=O)Nn2cnnc2)c1 | 22.5% | · | 13.1% | · | -0.3% | · |
| 6 | N#Cc1ccc(COC(=O)c2cc(=O)c3ccccc3o2)cc1 | -4.8% | -8.1% | -0.7% | 3.3%[46 µM] | 1.2% | 0.6% |
| 7 | CCOc1ccc2oc(C(=O)N3CCN(c4ccccn4)CC3)c(C)c2c1 | -3.9% | · | 4.5%[0.501 µM] | · | -2.2% | · |
| 8 | O=C(OCc1ccc([N+](=O)[O-])cc1)c1cc(=O)c2ccccc2o1 | 15.0% | · | 50.1µM* | · | -13.0% | · |
| 9 | CCOc1ccc(NC(=O)COC(=O)c2cc(=O)c3ccccc3o2)cc1 | · | · | 20µM* | · | · | · |
| 10 | Cc1c(C(=O)N2CCN(c3ccccn3)CC2)oc2ccccc12 | 12.0% | 0.3% | ? | 3.2% | 2.0% | 14.1µM* |
| 11 | COc1ccc(OCC(=O)Nc2c(C(=O)N3CCN(c4ccccc4)CC3)oc3ccccc23)cc1 | · | · | -32.3%[59 µM] | 8.7%[46 µM] | -7.1% | · |
| 12 | COc1ccc(N2CCN(C(=O)c3oc4ccccc4c3NC(=O)Cc3ccc(OC)c(OC)c3)CC2)cc1 | -4.5% | · | 28.2µM* | · | -0.4% | · |
| 13 | CC[C@H](C)[C@H](N)C(=O)N[C@H](C(=O)N[C@@H](CO)C(=O)N[C@@H](C)C(=O)N[C@H](C(=O)N[C@H](C(=O)NCC(=O)N[C@H](C(=O)N[C@@H](CC(C)C)C(=O)O)[C@@H](C)CC)C(C)C)C(C)C)[C@@H](C)CC | 0.5% | · | · | · | · | · |
| 14 | Cc1ccc(S(=O)(=O)NCC(=O)NCCc2c[nH]c3ccccc23)cc1C | 8.1% | · | 43.7% | · | -4.4% | · |
| 15 | COC(=O)C1CC1[C@H](NC(=O)c1cccnc1)c1ccccc1 (stereo partly drawn) | 15.6% | · | · | · | · | · |
| 16 | NC(=O)CC(NC(=O)c1ccc(Br)cc1)c1ccc(NC2CCCCCCC2)c([N+](=O)[O-])c1 (stereo not drawn) | 5.2% | · | 79.4µM* | · | -12.4% | · |
| 17 | NC(=O)CC(NC(=O)c1ccc(Br)cc1)c1ccc(N2CCCCCC2)c([N+](=O)[O-])c1 (stereo not drawn) | 5.4% | · | 44.7µM* | · | 17.7% | · |
| 18 | NC(=O)CC(NC(=O)c1cccc(Br)c1)c1ccc(NC2CCN(Cc3ccccc3)CC2)c([N+](=O)[O-])c1 (stereo not drawn) | 11.7% | · | 50.1µM* | · | 2.8% | · |
| 19 | NC(=O)CC(NC(=O)c1ccccc1)c1ccc(N2CCCCCCC2)c([N+](=O)[O-])c1 (stereo not drawn) | 3.3% | · | 44.7µM* | · | 2.2% | · |
| 20 | NC(=O)CC(NC(=O)c1ccccc1)c1ccc(NC2CCCCCCC2)c([N+](=O)[O-])c1 (stereo not drawn) | -12.7% | · | · | · | -5.1% | · |
| 21 | c1ccc(-c2nc(N3CCOCC3)c3ccccc3n2)nc1 | 14.1µM* | 3.0% | ? | -23.0% | 24.3% | -3.8% |
| 22 | Cc1ccccc1-c1nc(N2CCN(C)CC2)c2ccccc2n1 | -2.8% | · | 2.4%[0.501 µM] | -14.8% | · | ? |
| 23 | COc1ccc(Oc2nc(-c3ccccn3)nc3ccccc23)cc1 | 39.8µM* | -16.4% | · | · | 23.1% | ? |
| 24 | c1ccc(Oc2nc(-c3ccccn3)nc3ccccc23)cc1 | ? | 2.1% | · | · | 15.7% | ? |
| 25 | CN1CCN(c2nc(-c3ccccc3O)nc3ccccc23)CC1 | -1.7% | · | 31.6µM* | · | 3.7% | · |
| 26 | O=[N+]([O-])c1cccc(-c2nc(N3CCOCC3)c3ccccc3n2)c1 | -8.5% | 4.5% | · | · | -0.3% | 7.94µM* |
| 27 | CCOc1cc(Cl)c(S(=O)(=O)n2ccnc2)cc1Cl | · | · | 4.7%[59 µM] | · | -4.5% | · |
| 28 | Cc1ccccc1Nc1nnc(-c2ccc(C)c(S(=O)(=O)N3CCCCC3)c2)c2ccccc12 | · | · | -0.1%[59 µM] | · | 9.8% | · |
| 29 | Cn1c(CNC(=O)CCNC(=O)c2cccc(Cl)c2)cc(=O)n(C)c1=O | 9.5% | · | 49.0% | · | 3.0% | · |
| 30 | COc1ccc(S(=O)(=O)Nc2cccc(C(C)=O)c2)cc1Br | -4.1% | 2.3% | 7.0% | -9.5%[46 µM] | 3.6% | 31.6µM* |
| 31 | COc1ccccc1Nc1ccc(N)cc1 | -14.9% | -14.5% | 12.6µM* | -16.9%[46 µM] | 4.7% | 28.2µM* |
| 32 | COc1ccccc1Nc1ccc(NS(=O)(=O)c2ccc(C(C)=O)cc2)cc1 | -3.3% | · | 35.5µM* | · | -4.6% | · |
| 33 | Cn1c(=O)oc2cc(S(=O)(=O)NCc3ccccn3)ccc21 | -13.1% | 3.6% | 12.6µM* | -2.2% | 0.4% | -3.4% |
| 34 | CNc1nc2c(c(=O)n(C)c(=O)n2C)n1CC(O)COc1ccc(OC)cc1 (stereo not drawn) | · | · | -24.3%[59 µM] | · | ? | · |
| 35 | CN(CC(=O)Nc1ccc(Cl)c(C(F)(F)F)c1)C(=O)C1CC(=O)N(C2CCCC2)C1 (stereo not drawn) | · | · | 15.0%[12.7 µM] | · | · | · |
| 36 | CCCC/C=C/[C@H](c1ccccc1)[C@H](CO)Cc1cccnc1 | 0.9% | · | · | · | · | · |
| 37 | Cc1ccc(/C=C/c2onc(C)c2S(=O)(=O)N2CCC(C(=O)N3CCN(c4cc(C)ccc4C)CC3)CC2)cc1 | · | · | 10.8%[59 µM] | -3.9%[46 µM] | 9.1% | · |
| 38 | CCN(CC)c1ccc(NS(=O)(=O)c2ccc3c(c2)oc(=O)n3C)c(C)c1 | ? | ? | 39.8µM* | -6.4% | 20.7% | ? |
| 39 | CC(=O)c1cccc(NS(=O)(=O)c2ccc3c(c2)oc(=O)n3C)c1 | -15.3% | 1.5% | -39.2%[59 µM] | ? | -0.6% | 22.4µM* |
| 40 | CC(C)Oc1ccc(OCCn2c(S(=O)(=O)O)nc3c(N)ncnc32)cc1 | 9.7% | · | ? | · | -5.3% | · |
| 41 | Cc1cccc(/C(N)=N/OC(=O)N2c3ccccc3Sc3ccccc32)c1 | -1.2% | 13.5% | ? | 10.7% | -1.5% | -5.8% |
| 42 | N/C(=N\OC(=O)N1c2ccccc2Sc2ccccc21)c1ccccc1 | -13.6% | -0.2% | 44.7µM* | ? | -8.8% | 8.1% |
| 43 | NC(=O)c1nsc(C(=O)N(c2ccccc2)C(C(=O)NCC2CCCO2)c2cccs2)c1N (stereo not drawn) | 12.5% | ? | -9.2% | · | 0.2% | ? |
| 44 | COc1ccc(C(C(=O)NC2CCCC2)N(C(=O)c2snc(C(N)=O)c2N)c2cccc(O)c2)cc1 (stereo not drawn) | -8.4% | · | 70.8µM* | · | -8.4% | · |
| 45 | COc1cccc(N(C(=O)c2snc(C(N)=O)c2N)C(C(=O)NCC2CCCO2)c2cccs2)c1 (stereo not drawn) | -1.0% | · | 35.5µM* | · | -10.2% | · |
| 46 | COc1ccccc1OCC(=O)Nc1nc2c(s1)CC(C)CC2 (stereo not drawn) | · | · | -37.0%[59 µM] | ? | -32.0% | · |

Records 42–43 of the list above:
| No. | SMILES | Sfp inh | JMJD2E inh | G9a block | Lamin A splicing | miR-21 reporter | ALDH1A1 inh |
| --- | --- | --- | --- | --- | --- | --- | --- |
| 42 | N/C(=N\OC(=O)N1c2ccccc2Sc2ccccc21)c1ccccc1 | -13.6% | -0.2% | 44.7µM* | ? | -8.8% | 8.1% |
| 43 | NC(=O)c1nsc(C(=O)N(c2ccccc2)C(C(=O)NCC2CCCO2)c2cccs2)c1N (stereo not drawn) | 12.5% | ? | -9.2% | · | 0.2% | ? |

Compounds above containing a cyano group, in the order listed:
| No. | SMILES | Sfp inh | JMJD2E inh | G9a block | Lamin A splicing | miR-21 reporter | ALDH1A1 inh |
| --- | --- | --- | --- | --- | --- | --- | --- |
| 4 | CN1CCN(CC(=O)Nc2c(C#N)cnn2-c2ccccc2)CC1 | -4.5% | -4.7% | 5.2% | · | -4.2% | · |
| 6 | N#Cc1ccc(COC(=O)c2cc(=O)c3ccccc3o2)cc1 | -4.8% | -8.1% | -0.7% | 3.3%[46 µM] | 1.2% | 0.6% |
